In patent publication US20140328840A1, “MARKER AND TARGET FOR RESPONSIVENESS AND RESISTANCE TO CANCER AGENTS” (The Provost, Fellows, Foundation Scholars, and the Other …, priority 2011, published 2014):

Columns and labels:
[1] = tested on: NmU mRNA in HCC1954 cells; assay: Short-term drug exposure, qPCR of NmU mRNA in conditioned medium and cells; type: cell-based; settings: HCC1954, 12.5 μg/ml, 48 hours, vs untreated control
Method: Conditioned medium (CM) was collected, centrifuged and filtered, as previously described (1-2), prior to NmU mRNA and protein analysis.
Total RNA was isolated from cell lines and CM using TriReagent (Sigma-Aldrich). In order to remove any potential contaminating genomic DNA, RNA was treated with DNase enzymes and minus reverse transcriptase enzyme controls verified no DNA/pseudogene contamination of starting material. cDNA was prepared from 500ng cell-derived and 4 μl CM-derived total RNA, respectively.

HCC1954-NmU cells = assay: Proliferation assay, NmU cDNA- versus mock-transfected cells; type: cell-based; settings: HCC1954-NmU vs HCC1954-mock
Method: (§1) Two siRNAs, designated NmU-1 (SEQ ID NO: 3; 5′-[…]-3′) and NmU-2 (SEQ ID NO: 4; 5′-[…]-3′) (s225456 and s21351, respectively, Ambion, UK), (30 nM) were used to target NmU. Scrambled siRNA (SCR) (AM4611, Ambion, UK) was used as negative control. Transient transfections were harvested 72 hours post-transfection for RNA and protein extraction. NmU full-length cDNA was sub-cloned from pOTB7 (clone ID3502168, Open Biosystems, Ireland) by PCR into pcDNA 3.1(+) zeo-plasmid vector (Invitrogen, Ireland). The construct was verified by DNA sequencing. Mock controls used were of pcDNA3.1(+) plasmid lacking NmU cDNA. Lipofectamine 2000 (Invitrogen, Ireland) was used for transfection following the manufacturer's instructions. Stable transfectants were established by selecting with zeocin (50 μg/ml and 300 μg/ml for HCC1954 and SKBR3 transfected cells, respectively; based on initial assessment of the toxicity of zeocin on these cells) (Invitrogen, Ireland).
(§2) Cells with acquired-resistance compared to aged-parent cells and NmU cDNA-versus mock-transfected cells (HCC1954 variants, 2×10^3 cells/well; SKBR3 variants, 5×10^3 cells/well) were seeded for 24 hours prior to drug additions. […] Five days later, acid phosphatase assay was performed as previously detailed (3).

SKBR3-NmU cells = assay: as above; type: cell-based; settings: SKBR3-NmU vs SKBR3-mock
Method: as §1, §2

HCC1954 cells [2] = assay: Resistance to HER-targeted drugs after exogenous NmU treatment; type: cell-based; settings: HCC1954, exogenous NmU (NmU-25) 48 hours; all drugs
Method: To assess if functional NmU receptors are expressed on cells, SKBR3 and HCC1954, (1×10^6 cells) were seeded in 25 cm^2 flask, allowed attach overnight and subsequently treated with 1 μM of NmU-25 (Bachem, Switzerland) for 24-48 hours.

SKBR3 cells = settings: cited from earlier work
HCC1954 cells [3] = settings: cited from earlier work
MDA-MB-361 = settings: cited from earlier work

Trastuzumab
induced NmU mRNA levels in CM [1]: 3.9±1 fold | induced NmU mRNA levels in corresponding cells [1]: 3.9±1.15 fold | anti-proliferative effects in NmU-transfected compared to mock-transfected cells (HCC1954-NmU cells): exception | anti-proliferative effects in NmU-transfected compared to mock-transfected cells (SKBR3-NmU cells): significantly compromised | level of resistance induced by exogenous NmU (HCC1954 cells [2]): 1.1 fold | innate sensitivity/resistance (SKBR3 cells): sensitive | innate sensitivity/resistance (HCC1954 cells [3]): resistant | innate sensitivity/resistance (MDA-MB-361): sensitive
